In PubChem BioAssay (NCI):
This is a selection; strong and weak results do not stand in their true shares. Some structures have more than one record in an assay (separate samples or runs), and their calls can disagree. Activity calls are given as the source filed them. No stated cut-off is given here; in the data, active means growth inhibition above about 70%; inactive means the rest.

Assay: NCI Yeast Anticancer Drug Screen. Data for the rad14 strain (AID 159);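 further: 0% = growth of vehicle-treated control cultures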
Conditions: S. cerevisiae rad14 strain growth inhibition, active compounds read high
Experimental: Growth inhibition of yeast strains with defined genetic alterations is measured as a screen for potential anti-cancer activity. Selected strains with alterations in DNA damage repair or cell cycle control were exposed to compounds and growth inhibition was measured relative to vehicle treated controls. The strain used in this assay is rad14

| SMILES | growth inhibition (at 1.2 µM) | growth inhibition (at 3.7 µM) | growth inhibition (at 11.0 µM) | growth inhibition (at 33.0 µM) | growth inhibition (at 100.0 µM) |
| --- | --- | --- | --- | --- | --- |
| O=[N+]([O-])c1cc([N+](=O)[O-])c2nsnc2c1 | inactive: 29% | active: 100% | active: 100% | active: 100% | active: 99% |
| CC(C)c1nc(Nc2ccccc2)n(P(=O)(N(C)C)N(C)C)n1 | inactive: -22% | inactive: -6% | inactive: -14% | inactive: 61% | active: 95% |
| COc1cccc(C[N+](C)(CCCl)CCCl)c1[N+](=O)[O-] | inactive: -8% | inactive: -3% | inactive: 23% | active: 76% | active: 92% |
| FC1(F)SC2C(C1(F)F)C1(Cl)C(Cl)=C(Cl)C2(Cl)C1(Cl)Cl (stereo not given) | inactive: 9% | active: 79% | active: 99% | active: 99% | active: 98% |
| NC(Cc1cnc[nH]1)C(=O)O (stereo not given) | inactive: 0% | inactive: 48% | active: 98% | active: 99% | active: 99% |
| O=C1OC(C(Cl)(Cl)Cl)Sc2ccccc21 (stereo not given) | inactive: -3% | inactive: 0% | inactive: 5% | inactive: 35% | active: 76% |
| N#Cc1cc([N+](=O)[O-])cc([N+](=O)[O-])c1N | inactive: 4% | inactive: 12% | inactive: 41% | active: 70% | active: 86% |
